These are literature values, as cited in publication PMC4579270, “Identification and Characterization of an Irreversible Inhibitor of CDK2” (Chemistry & Biology, 2015).

The series concerns the target CDK2. The following applies: ref Davies et al., 2002; cited from earlier work.

For `NS(=O)(=O)c1ccc(Nc2nc(OCC3CCCCC3)c3nc[nH]c3n2)cc1` [NU6102, 4-((6-(Cyclohexylmethoxy)-9H-purin-2-yl)amino)benzenesulfonamide], the inhibition constant (Ki) was 6 nM.
